Reference: patent publication US20210198269A1, “INHIBITORS OF GLUCOSE TRANSPORTERS (GLUTs)” (LEAD DISCOVERY CENTER GMBH, priority 2018, published 2021)

The chains behind the UniProt entries cited, without tags or fusion partners.
UniProt P14672, whole entry: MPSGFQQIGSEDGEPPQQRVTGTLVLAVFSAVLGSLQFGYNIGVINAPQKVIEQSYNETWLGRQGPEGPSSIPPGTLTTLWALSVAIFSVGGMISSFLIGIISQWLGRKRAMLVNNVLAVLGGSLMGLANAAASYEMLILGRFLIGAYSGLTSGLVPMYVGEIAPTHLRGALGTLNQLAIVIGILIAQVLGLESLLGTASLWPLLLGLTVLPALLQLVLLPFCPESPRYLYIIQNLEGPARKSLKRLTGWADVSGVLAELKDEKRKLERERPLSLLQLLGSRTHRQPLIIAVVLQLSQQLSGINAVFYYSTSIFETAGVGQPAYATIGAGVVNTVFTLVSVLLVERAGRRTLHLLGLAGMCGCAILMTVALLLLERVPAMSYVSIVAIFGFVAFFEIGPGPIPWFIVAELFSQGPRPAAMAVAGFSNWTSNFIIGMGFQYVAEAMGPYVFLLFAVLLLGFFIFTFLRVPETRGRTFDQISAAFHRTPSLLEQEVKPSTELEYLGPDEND
UniProt P11169, whole entry: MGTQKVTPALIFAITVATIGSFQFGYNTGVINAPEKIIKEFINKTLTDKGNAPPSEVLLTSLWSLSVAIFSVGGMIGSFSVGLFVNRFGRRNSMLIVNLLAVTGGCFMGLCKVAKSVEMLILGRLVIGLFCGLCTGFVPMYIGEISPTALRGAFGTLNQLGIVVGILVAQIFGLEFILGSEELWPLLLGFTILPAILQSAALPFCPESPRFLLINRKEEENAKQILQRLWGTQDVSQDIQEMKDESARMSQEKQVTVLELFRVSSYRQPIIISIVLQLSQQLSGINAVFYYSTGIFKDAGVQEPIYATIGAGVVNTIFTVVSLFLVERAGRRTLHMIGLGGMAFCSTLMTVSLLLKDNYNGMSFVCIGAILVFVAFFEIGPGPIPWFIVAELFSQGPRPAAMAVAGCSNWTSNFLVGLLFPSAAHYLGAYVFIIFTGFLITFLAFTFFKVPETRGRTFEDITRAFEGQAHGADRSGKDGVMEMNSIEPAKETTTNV
UniProt P11166, whole entry: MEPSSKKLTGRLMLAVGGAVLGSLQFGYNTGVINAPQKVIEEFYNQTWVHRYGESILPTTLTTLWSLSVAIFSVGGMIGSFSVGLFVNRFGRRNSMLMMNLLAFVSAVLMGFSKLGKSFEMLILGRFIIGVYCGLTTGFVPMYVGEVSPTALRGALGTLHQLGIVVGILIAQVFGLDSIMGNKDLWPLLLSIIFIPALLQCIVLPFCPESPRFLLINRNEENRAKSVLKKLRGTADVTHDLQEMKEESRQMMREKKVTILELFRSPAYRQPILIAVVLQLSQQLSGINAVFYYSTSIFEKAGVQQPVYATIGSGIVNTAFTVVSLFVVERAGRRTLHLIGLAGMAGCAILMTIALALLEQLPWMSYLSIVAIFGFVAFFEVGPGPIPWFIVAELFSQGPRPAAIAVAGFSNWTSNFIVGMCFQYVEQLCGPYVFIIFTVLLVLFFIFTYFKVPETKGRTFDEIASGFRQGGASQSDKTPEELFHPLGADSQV
UniProt P11168, whole entry: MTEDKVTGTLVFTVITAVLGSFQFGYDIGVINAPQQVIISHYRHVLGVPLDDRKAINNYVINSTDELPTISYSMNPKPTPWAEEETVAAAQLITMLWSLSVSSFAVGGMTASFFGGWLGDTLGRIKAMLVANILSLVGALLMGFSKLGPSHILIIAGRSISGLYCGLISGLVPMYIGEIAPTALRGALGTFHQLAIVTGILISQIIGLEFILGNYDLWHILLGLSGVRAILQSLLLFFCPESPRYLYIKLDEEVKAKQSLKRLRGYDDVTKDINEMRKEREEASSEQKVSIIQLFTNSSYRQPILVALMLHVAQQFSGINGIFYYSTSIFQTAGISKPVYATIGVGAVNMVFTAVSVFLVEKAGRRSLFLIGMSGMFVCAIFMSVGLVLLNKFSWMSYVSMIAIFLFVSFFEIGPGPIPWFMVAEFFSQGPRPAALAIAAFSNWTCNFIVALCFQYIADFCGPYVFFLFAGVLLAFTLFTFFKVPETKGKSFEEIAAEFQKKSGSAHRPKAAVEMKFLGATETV

Columns and labels:
[1] = target: GLUT4 (Homo sapiens, UniProt P14672); experiment: GLUT4 transporter activity assay (2-DG uptake) in CHO-hGLUT4 cells; assay type: cell-based; details: read-out: GLUT4 inhibitory activity (IC50); CHO-hGLUT4 cell line
Experimental: CHOK1-SLC2A4 cells were generated by transfection of CHOK1 cells with pCMV6-Entry-GLUT4 (Origene #SC125240) using Lipofectamin2000 according to the supplier's instructions. Briefly, 1.5E5 cells/well CHOK1 cells were seeded in 6-well cell culture plates. After overnight incubation, DNA-lipid complexes (2 μg plasmid DNA, DNA:lipid ratio 1:10) were prepared in OptiMEM and then added to the cells. After 5 days incubation, 800 μg G418 was added to the culture medium to generate a stable polyclone. For monoclone selection, single cells were re-plated in 96-well plates, expanded and selected by transgene overexpression and functional performance.
(§1) GLUT 1, 2, 3 and 4 Transporter Activity Assays
(§2) Assays were based on the specificity assays reported by Kapoor et al., Proceedings of the National Academy of Sciences 2016, 113 (17) 4711-4716. For GLUT1, GLUT2, GLUT3 and GLUT4 specificity testing DLD1, CHO-hGLUT2, DLD-1-GLUT1−/− and CHO-hGLUT4 cell lines were used.
(§3) Assay protocols for 2-deoxy-Glucose (2-DG) Uptake Assay with DLD1 or DLD1-Glut1(−/−) cells or 7,000 CHOK1-SLC2A4 cells lines:
(§4) 14,000 DLD1 or DLD1-Glut1(−/−) cells or 7,000 CHOK1-SLC2A4 cells were seeded in black, clear bottom 384-well plates in glucose- and phenolred-free RPMI1640 medium supplemented with 1% FCS and 2 mM L-glutamine and allowed to attach overnight. Next day, cells were washed and incubated with compounds or DMSO and 1 mM 2-DG in glucose- and phenolred-free RPMI1640 medium for 30 min. Cells were then washed and lysed in 0.06 M HCl and 1% CHAPS for 15 min at 65° C. The amount of 2-DG in the lysate was determined by means of enzyme-coupled assay. For this 16 U/mL glucose-6-phosphate dehydrogenase, 0.2 U/mL diaphorase, 0.1 mM NADP^+ and 10 μM resazurin were added to the lysates. Resorufin fluorescence was determined as a measure of 2-DG uptake at ex/em 535/590 nm with a Victor Multilabel plate reader (Perkin Elmer). Blank values were subtracted from all readings and values were normalized to the DMSO control.

[2] = target: GLUT3 (Homo sapiens, UniProt P11169); experiment: GLUT3 transporter activity assay (2-DG uptake) in DLD-1-GLUT1-/- cells; details: read-out: GLUT3 inhibitory activity (IC50); DLD-1-GLUT1-/- cell line
Description: as §1, §2, §3, §4

[3] = target: GLUT1 (Homo sapiens, UniProt P11166); experiment: GLUT1 transporter activity assay (2-DG uptake) in DLD1 cells; details: read-out: GLUT1 inhibitory activity (IC50); DLD1 cell line
Description: as §1, §2, §3, §4

[4] = target: GLUT2 (Homo sapiens, UniProt P11168); experiment: GLUT2 transporter activity assay in CHO-hGLUT2 cells (indirect, intracellular ATP levels); details: read-out: GLUT2 inhibitory activity (IC50); CHO-hGLUT2 cell line
Description: as §1, §2
Example 8-3: Indirect Measurement of GLUT2 (SLC2A2) Activity by Quantification of Intracellular ATP Levels
A combination of small-molecule inhibitors of mitochondrial electron transport chain and glucose catabolism synergistically suppress ATP production and impair cellular viability (Ulanovskaya et al., 2008, 2011; Liu, et al. 2001). We therefore used CHOK1 cells overexpressing SLC2A2 (CHOK1-SLC2A2) in combination with an oxidative phosphorylation inhibitor (Rotenon) to identify GLUT2 inhibitors. CHOK1-SLC2A2 cells were purchased from creative biogene (catNo: CSC-SC014484) and maintained in RPMI1640 supplemented with 10% FBS and 2 mM L-Glutamine. […] The CellTiter-Glo® Luminescence Viability Assay from Promega was used to measure ATP levels. Luminescence was measured with a Victor Multilabel plate reader (Perkin Elmer). Blank values were subtracted from all readings and values were normalized to the DMSO control.

Row | IC50 [1] [µM] | IC50 [2] [µM] | IC50 [3] [µM] | IC50 [4] [µM] | Compound
1 | > 25 | 4 to 10 | 10 to 25 |  | CC12CC(NC(=O)N1c1ccccc1)c1cccc(OCc3ccccc3)c1O2 (stereo not shown)
2 | > 25 | 10 to 25 | 10 to 25 |  | Cc1ccc(CCNC(=O)c2cccc(N3C(=O)NC4CC3(C)Oc3c(O)cccc34)c2)cc1 (stereo not shown)
3 | > 25 | > 25 | > 25 | > 25 | CC12CC(NC(=O)N1)c1cccc(OCc3ccccc3)c1O2 (stereo not shown)
